Reference: patent US4765972A (priority 1986, dated 1988)

What was measured:
Assay type in all cases: binding
[1] = system: 54.3 kDa polypeptide (tubulin subunit); test: Photolabelling of calf brain homogenate with ^3 H-NABV, 54.3 kDa polypeptide
Procedure: (§1) Tissue homogenate high speed supernatant and pellet fractions were obtained by homogenizing 1 gram of calf brain in 10 ml volumes of 0.05 M potassium phosphate buffer, pH 7.4, for one minute with a Model PCU Polytron homogenizer with a PT-10-ST probe operated at 50% maximum power (Brinkmann Instruments, Westbury, NY). The brain tissue homogenate was collected after filtering through one layer of cheesecloth. Brain tissue high speed supernatant fractions were prepared by centrifuging the homogenates at 100,000×g for 60 minutes at 4° C. The resulting pellet was washed twice with five times its original volume of buffer, and recentrifuged as described. Protein concentrations and supernatant fractions were stored in small aliquots in liquid nitrogen and thawed only once.
(§2) The standard photolabelling mixture used contained 50 nM ^3 H-NABV (50.6 Ci/mmol), 4% dimethylsulfoxide, […] potassium phosphate buffer, pH 7.0, and 2 mg/ml of tissue homogenate or high speed pellet or supernatant fractions in a final volume of 0.05 ml in polyvinylchloride V-microtiter wells (Dynatech Labs, Inc., Alexandria, VA) in a 25° C. water bath. Photolabelling mixtures were incubated for 15 minutes at 25° C. before photolysis. Photoactivation was performed for 10-20 minutes with a UV light equipped with two 15 W self-filtering 302 nm lamps (Model xx-15, Ultra-Violet Products, Inc., San Gabriel, CA), placed 3.4 cm above the photolabelling mixture. […]
(§3) Electrophoresis was performed as described by Laemmli in Nature (Lond.) 227, 680-685 (1970) with a linear polyacrylamide gradient from 9.7% acrylamide, 0.26% bis-acrylamide and 10% glycerol, to 16.6% acrylamide, 0.44% bis-acrylamide, and 17% glycerol using a Bio-Rad slab gel apparatus (Model 220, Richmond, CA) at 8 mA/gel for sixteen hours. […] Each slice was incubated with 0.3 ml 30% H2 O2 in a closed scintillation vial at 100° C. for one hour to solubilize the gel slice, with radioactivity subsequently quantitated. […] The radioactivity of photolabelled components was quantitated in triplicate by adding the dpm in each 1 mm gel slice through the radioactive peak. […]

[2] = system: 21.5 kDa polypeptide; test: Photolabelling of calf brain homogenate with ^3 H-NABV, 21.5 kDa polypeptide
Procedure: as §1, §2, §3

[3] = system: 14, 26, and 44 kDa polypeptides; test: Photolabelling of calf brain homogenate with ^3 H-NABV, weakly labelled polypeptides; conditions: 20 micromoles of vinblastine
Procedure: as §1, with “Protein concentrations and supernatant fractions were stored in small aliquots in liquid nitrogen and thawed only once.” left out
as §3

[4] = 0.44 micromoles ^3 H-NABV, increasing concentrations of vinblastine
[5] = slope of replot of competition data
[6] = 0.44 micromoles ^3 H-NABV, competitor 1-22 micromoles

Structure (SMILES)	limiting minimum of labelling, % of the total photolabelling in the absence of competitor [1, 4]	relative association constant Kr =Ka vinblastine/Ka NABV [1, 5]	limiting minimum of labelling, % of the total photolabelling in the absence of competitor [2, 4]	relative association constant Kr =Ka vinblastine/Ka NABV [2, 5]	decrease of photolabelling [3]	effect of increasing concentrations of competitor on photolabelling [1, 6]	effect of increasing concentrations of competitor on photolabelling [2, 6]
CC[C@]1(O)C[C@@H]2CN(CCc3c([nH]c4ccccc34)[C@@](C(=O)OC)(c3cc4c(cc3OC)N(C)[C@H]3[C@@](O)(C(=O)OC)[C@H](OC(C)=O)[C@]5(CC)C=CCN6CC[C@]43[C@@H]65)C2)C1 [vinblastine]	about 50%	0.86	about 50%	1.4	approximately 40%	–	–
CC[C@]1(O)C[C@H]2CN(CCc3c([nH]c4ccccc34)[C@@](C(=O)OC)(c3cc4c(cc3OC)N(C=O)[C@H]3[C@@](O)(C(=O)OC)[C@H](OC(C)=O)[C@]5(CC)C=CCN6CC[C@]43[C@@H]65)C2)C1 [vincristine]	–	–	–	–	–	significantly decreased	significantly decreased
